A word on the IC50: it is the concentration needed to halve the response being measured. Lower therefore signals inhibition by little substance.

By UniProt entry, the sequences of proteins in these tests, tags left out. Where a name states a change or a piece, a line headed by the entry shows the natural chain unless it says otherwise.
UniProt Q06187: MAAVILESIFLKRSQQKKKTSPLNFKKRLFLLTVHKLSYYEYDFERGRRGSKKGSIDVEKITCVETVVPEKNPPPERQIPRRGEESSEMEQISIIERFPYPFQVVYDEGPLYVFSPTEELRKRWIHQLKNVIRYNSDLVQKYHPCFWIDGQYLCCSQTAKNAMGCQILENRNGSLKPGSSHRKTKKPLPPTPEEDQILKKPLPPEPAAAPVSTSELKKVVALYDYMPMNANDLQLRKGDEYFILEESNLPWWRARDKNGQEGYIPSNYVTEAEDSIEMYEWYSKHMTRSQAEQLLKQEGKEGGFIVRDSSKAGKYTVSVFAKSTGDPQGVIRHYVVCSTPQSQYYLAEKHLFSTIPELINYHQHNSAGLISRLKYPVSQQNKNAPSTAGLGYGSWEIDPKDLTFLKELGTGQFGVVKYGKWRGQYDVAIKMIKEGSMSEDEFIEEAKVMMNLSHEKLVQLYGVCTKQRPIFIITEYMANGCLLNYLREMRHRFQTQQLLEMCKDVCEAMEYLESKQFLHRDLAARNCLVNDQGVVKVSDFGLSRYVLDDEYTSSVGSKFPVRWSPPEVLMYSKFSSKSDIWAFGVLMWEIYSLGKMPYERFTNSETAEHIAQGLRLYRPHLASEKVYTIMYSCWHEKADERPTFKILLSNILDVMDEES

In the experiment the target is Bruton's Tyrosine Kinase (BTK), inactivated state (Homo sapiens (Human), UniProt Q06187). As to the kind of experiment: Bruton's Tyrosine Kinase (BTK) Inhibition TR-FRET (Time Resolved FRET) competition assay. The format is binding. The following applies: Kinase Tracer 178, BTK-Eu, 18-24 h at 14° C. As for the experimental part:
Bruton's Tyrosine Kinase (BTK) Inhibition TR-FRET (Time Resolved FRET) Assay
This BTK competition assay measures compound potency (IC50) for the inactivated state of Bruton's Tyrosine Kinase using FRET (Forster/Fluorescence Resonance Energy Transfer) technology. The BTK-Eu complex was incubated on ice one hour prior to use at a starting concentration of 50 nM BTK-Bioease™: 10 nM Eu-streptavidin (Perkin-Elmer Catalog# AD0062). The assay buffer consisted of 20 mM HEPES (pH 7.15), 0.1 mM DTT, 10 mM MgCl2, 0.5 mg/ml BSA with 3% Kinase Stabilizer (Fremont Biosolutions, Catalog # STB-K02). After 1 h, the reaction mixture from above was diluted 10 fold in assay buffer to make 5 nM BTK: 1 nM Eu-Streptavidin complex (donor fluorophore). […]
After the incubation the plates were read on a BMG Pherastar Fluorescent plate reader (or equivalent) and used to measure the emission energy from the europium donor fluorophore (620 nm emission) and the FRET (665 nm emission). […] Percent of maximal FRET was calculated using following equation: % max FRET=100×[(FSRcmpd−FSRmean min)/(FSRmean max−FSRmean min)] where FSR=FRET Signal ratio. % Max FRET curves were plotted in Activity Base (Excel) and the IC50(%), hill slope, z′ and % CV were determined. […]
For orientation: TR-FRET usually uses a lanthanide donor and a delayed reading to cut background.

`NC(=O)c1nc(N2CCC[C@@H](NC(=O)N3Cc4ccccc4C3)C2)sc1Nc1ccccn1` [Compound 1, 1,3-Dihydro-isoindole-2-carboxylic acid {(R)-1-[4-carbamoyl-5-(pyridin-2-ylamino)-thiazol-2-yl]-piperidin-3-yl}-amide] came in with a half-inhibitory concentration (IC50) of 254 nM.

Regarding `NC(=O)c1nc(N2CCC[C@@H](NC(=O)CNc3cccc(Cl)c3)C2)sc1Nc1ccccn1` [Compound 11, 2-{(R)-3-[2-(3-Chloro-phenylamino)-acetylamino]-piperidin-1-yl}-5-(pyridin-2-ylamino)-thiazole-4-carboxylic acid amide], the IC50 amounted to 5370 nM.

These data come from patent US9359345B2, “Thiazole derivatives as inhibitors of Bruton's tyrosine kinase” (Hoffmann-La Roche Inc., priority 2012, dated 2016).
